Values joined by “and” are separate entries in the source; they are usually repeats but may differ in a detail not shown here. Equal values may be shown once.
Legend:
human hepatocytes = experiment: Metabolite identification in human hepatocytes; format: in vitro ADME; conditions: 5-MeO-DMT free base 10 μM, up to 120 minutes
Method: All samples were stored at −80° C. (nominal) prior to analysis.
Appropriate blank and control samples were also analysed. […] (nominal).

[1] = system: human hepatocytes (Hμrel HumanPool co-culture); experiment: Metabolic stability in Hμrel human hepatocyte co-culture; format: in vitro ADME
Method: The metabolic stability of 5-MIAA and 5-methoxytryptophol was investigated in a Hμrel co-culture assay with human hepatocytes (Hμrel HumanPool™, primary hepatic co-culture model from Visikol Inc.).
The incubations were performed using 1 and 10 μM initial concentrations and sampling at 0, 1, 2, 4, 8, 24, 48, and 72 hours (h) time points. The samples were analysed using UPLC/QE-orbitrap-MS.
The remaining LC/MS peak areas detected for test compounds after each incubation time point with Hμrel co-culture assay, relative to corresponding 0 min incubation samples, are shown in the tables below.

[2] = LC-MS/MS of 5-MeO-DMT and metabolites in breastmilk, serum and urine of a lactating PPD patient; conditions: 5-MIAA after 5-MeO-DMT

## 5-methoxyindole acetic acid [5-MIAA]
Human hepatocytes; listed as 5-Methoxyindole acetic acid (5-MIAA)
  Relative Proportion of compound after incubation of 5-MeO-DMT: 61%
Human hepatocytes; acetic acid
  Relative Proportion of compound after incubation of 5-MeO-DMT: about 60%
[1]
  predicted hepatic extraction ratio: 2%
[1]; 0 h, incubation by row: r6 1 μM Hepatocytes, r7 1 μM Stromal cells, r8 10 μM Hepatocytes, r9 10 μM Stromal cells
  relative LC/MS peak area for 5-MIAA: 100%
[1]; 2 h, rows as E133
  relative LC/MS peak area for 5-MIAA: 100%
[1]; 4 h, rows as E133, acetic acid
  relative LC/MS peak area for 5-MIAA: 99% and 103% and 101%
[1]; 8 h, rows as E133, acetic acid
  relative LC/MS peak area for 5-MIAA: 95% and 107% and 96% and 106%
[1]; 24 h, rows as E133, acetic acid
  relative LC/MS peak area for 5-MIAA: 99% and 108% and 96% and 97%
[1]; 48 h, rows as E133, acetic acid
  relative LC/MS peak area for 5-MIAA: 88% and 111% and 86% and 103%
[1]; 72 h, rows as E133, acetic acid
  relative LC/MS peak area for 5-MIAA: 82% and 135% and 75% and 115%
[1]; human hepatocytes, 1 μM
  half-life: 15 400 min
[2]
  fold lower breast milk concentration at 24 hours than at one hour: ~400 fold

Reference: US20240115550A1, “TREATMENT OF MENTAL DISORDERS” (GH Research Ireland Limited, priority 2022, published 2024)
